Data from ChEMBL document CHEMBL5241102, “Drugs for the treatment of glaucoma: Targets, structure-activity relationships and clinical research” (Eur J Med Chem, 2021).

Protein sequences, listed by entry. Tags and fused reporters are not part of them.
UniProt P30542, whole entry: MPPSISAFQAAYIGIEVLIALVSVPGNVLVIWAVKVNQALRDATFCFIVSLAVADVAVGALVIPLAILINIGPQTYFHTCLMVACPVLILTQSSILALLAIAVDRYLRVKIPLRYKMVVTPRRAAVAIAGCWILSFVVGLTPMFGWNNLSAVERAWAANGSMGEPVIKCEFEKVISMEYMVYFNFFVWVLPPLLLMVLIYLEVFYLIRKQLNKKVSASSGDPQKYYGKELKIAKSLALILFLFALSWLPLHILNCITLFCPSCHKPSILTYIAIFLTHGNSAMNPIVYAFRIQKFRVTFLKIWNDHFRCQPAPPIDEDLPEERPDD

Molecular target: Adenosine receptor A1 (Homo sapiens) (UniProt P30542)
Experiment: Binding affinity to adenosine A1 receptor (unknown origin) assessed as inhibition constant

With O=[N+]([O-])OC[C@H]1O[C@@H](n2cnc3c(NC4CCCC4)ncnc32)[C@H](O)[C@@H]1O the K was 0.97 nM.
